Data taken from patent US12570711B2, “Platforms for co-stimulation, novel car designs and other enhancements for adoptive cellular therapy” (Angeles Therapeutics, Inc., priority 2017, dated 2026).
Read-outs that look alike come from different tables or passages of the source.

T1: CD19 (Homo sapiens, UniProt P15391)
T1 sequence (P15391 20-556): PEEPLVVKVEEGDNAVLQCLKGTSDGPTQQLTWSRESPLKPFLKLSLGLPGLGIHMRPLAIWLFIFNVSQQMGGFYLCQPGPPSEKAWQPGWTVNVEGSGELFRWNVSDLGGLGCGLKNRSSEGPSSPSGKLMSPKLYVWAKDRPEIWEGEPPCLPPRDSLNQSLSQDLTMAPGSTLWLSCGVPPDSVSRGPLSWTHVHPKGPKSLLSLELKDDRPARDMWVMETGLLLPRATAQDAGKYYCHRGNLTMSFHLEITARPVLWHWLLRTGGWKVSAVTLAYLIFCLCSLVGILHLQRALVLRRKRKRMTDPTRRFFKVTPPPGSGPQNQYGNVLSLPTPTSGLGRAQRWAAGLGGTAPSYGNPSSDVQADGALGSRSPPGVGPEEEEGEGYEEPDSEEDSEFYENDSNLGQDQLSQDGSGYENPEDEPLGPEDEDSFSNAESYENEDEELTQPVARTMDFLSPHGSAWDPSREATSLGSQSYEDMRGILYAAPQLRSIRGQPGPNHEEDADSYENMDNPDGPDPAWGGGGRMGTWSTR

B1: mNEMO-K270A: mouse NEMO-K270A mutant, known to activate NF-κB constitutively (protein)
chain: MNKHPWKNQLSETVQPSGGPAEDQDMLGEESSLGKPAMLHLPSEQGTPETLQRCLEENQELRDAIRQSNQMLRERCEELLHFQVSQREEKEFLMCKFQEARKLVERLSLEKLDLRSQREQALKELEQLKKCQQQMAEDKASVKAQVTSLLGELQESQSRLEAATKDRQALEGRIRAVSEQVRQLESEREVLQQQHSVQVDQLRMQNQSVEAALRMERQAASEEKRKLAQLQAAYHQLFQDYDSHIKSSKGMQLEDLRQQLQQAEEALVAAQELIDKLKEEAEQHKIVMETVPVLKAQADIYKADFQAERHAREKLVEKKEYLQEQLEQLQREFNKLKVGCHESARIEDMRKRHVETPQPPLLPAPAHHSFHLALSNQRRSPPEEPPDFCCPKCQYQAPDMDTLQIHVMECIE
B2: IKK1-S176E-S180E: constitutive active mutant of IKKa/IKK1 (protein)
chain: MERPPGLRPGAGGPWEMRERLGTGGFGNVCLYQHRELDLKIAIKSCRLELSTKNRERWCHEIQIMKKLNHANVVKACDVPEELNILIHDVPLLAMEYCSGGDLRKLLNKPENCCGLKESQILSLLSDIGSGIRYLHENKIIHRDLKPENIVLQDVGGKIIHKIIDLGYAKDVDQGELCTEFVGTLQYLAPELFENKPYTATVDYWSFGTMVFECIAGYRPFLHHLQPFTWHEKIKKKDPKCIFACEEMSGEVRFSSHLPQPNSLCSLIVEPMENWLQLMLNWDPQQRGGPVDLTLKQPRCFVLMDHILNLKIVHILNMTSAKIISFLLPPDESLHSLQSRIERETGINTGSQELLSETGISLDPRKPASQCVLDGVRGCDSYMVYLFDKSKTVYEGPFASRSLSDCVNYIVQDSKIQLPIIQLRKVWAEAVHYVSGLKEDYSRLFQGQRAAMLSLLRYNANLTKMKNTLISASQQLKAKLEFFHKSIQLDLERYSEQMTYGISSEKMLKAWKEMEEKAIHYAEVGVIGYLEDQIMSLHAEIMGLQKSPYGRRQGDLMESLEQRAIDLYKQLKHRPSDHSYSDSTEMVKIIVHTVQSQDRVLKELFGHLSKLLGCKQKIIDLLPKVEVALSNIKEADNTVMFMQGKRQKEIWHLLKIACTQSSARSLVGSSLEGAVTPQTSAWLPPTSAEHDHSLSCVVTPQDGETSAQMIEENLNCLGHLSTIIHEANEEQGNSMMNLDWSWLTE

Columns and labels:
CD19 = target: T1, CD19; experiment: CAR-T cell in vitro and in vivo assay panel (IL2 production, proliferation, exhaustion, in vivo expansion, anti-tumor activity); design: endogenous in cells; host or cells: RAJI cells in vitro; Nalm-6-Luc cells xenografted in NSG mice
CD3+ve T cells = experiment: Proliferation of T cells after lentiviral expression of NEMO mutants (cell numbers, long term culture); format: cell-based, human; conditions: for ability of T cells to proliferate long term in culture: expression in T cells
Source text: Thus, the disclosure provides composition and methods to enhance the survival, proliferation, cytokine secretion, delay exhaustion and senescence and improve the in vivo expansion, persistence and anti-tumor activity of an immune cell, e.g., T cell, e.g., CAR-T or TCR-T or SIR-T cell, and/or an immune cell expressing a non-naturally occurring immune receptor, via selective or preferential (i.e., without AKT activation) activation of the NF-κB pathway in the immune cell.
Buffy coat cells were obtained from healthy de-identified adult donors from the Blood Bank at Children Hospital of Los Angeles and used to isolate peripheral blood mononuclear cells (PBMC) by Ficoll-Hypaque gradient centrifugation. PBMC were either used as such or used to isolate T cells using CD3 magnetic microbeads (Miltenyi Biotech) and following the manufacturer's instructions. PBMC or isolated T cells were re-suspended in XVIVO medium (Lonza) supplanted with 10 ng/ml CD3 antibody, 10 ng/ml CD28 antibody and 100 IU recombinant human-IL2. Cells were cultured at 37° C., in a 5% CO2 humidified incubator. Cells were activated in the above medium for 1 day prior to infection with lentiviral vectors. In general, primary cells (e.g. T cells) were infected in the morning using spin-infection (1800 rpm for 90 minutes at 37° C. with 300 μl of concentrated virus that had been re-suspended in XVIVO medium in the presence of 8 μg/ml of Polybrene® (Sigma, Catalog no. H9268). The media was changed in the evening and the infection was repeated for two more days for a total of 3 infections. After the 3rd infection, the cells were pelleted and resuspended in fresh XVIVO media containing 10 ng/ml CD3 antibody, 10 ng/ml CD28 antibody and 100 IU recombinant human-IL2 and supplemented with respective antibiotics (if indicated) and place in the cell culture flask for selection, unless indicated otherwise. Cells were cultured in the above medium for 10-15 days in case no drug selection was used and for 20-30 days in case drug-selection was used. In cases, where cells were infected with a lentivirus expressing EGFP, they were expanded without drug-selection or flow-sorted to enrich for EGFP-expressing cells. For infection of cancer cell lines, approximately 500,000 cells were infected with 2 ml of the un-concentrated viral supernatant in a total volume of 3 ml with Polybrene® (Sigma, Catalog no. H9268). Then next morning, the cells were pelleted and resuspended in the media with respective antibiotics and place in the cell culture flask for selection.
The mouse NEMO-K270A (SEQ ID NO: 992) is known to activate NF-κB constitutively. […] Cells were cultured at 37° C., in a 5% CO2 humidified incubator, and after 1 day infected with a lentiviral vector (pLENTI-EGFP-Blasticidin) expressing EGFP and lentiviral vectors expressing mouse NEMO-K270A mutants (pLENTI-mNEMO-K270A-FLAG-Blasticidin and pLENTI-mNEMO-K270A-HA-Blasticidin), or mouse NEMO-wt (pLENTI-mNEMO-FLAG-Blasticidin). The sequences of mNEMO-K270A and mNEMO-wt are provided in SEQ ID NOs: 992 and 991, respectively. Approximately 1 day post-infection, cells were selected with blasticidin and cell numbers calculated periodically.

NF-κB = experiment: p65 nuclear translocation, nuclear NF-κB and AP1 binding activity in transduced bone marrow-derived dendritic cells; format: cell-based, mouse; conditions: for p65 (RelA) localisation in DCs: level similar to LPS-treated DCs, not in untreated or control vector DCs
Experimental: Transduction of DCs and flow cytometry. Murine bone marrow-derived Dendritic cells (DCs) are prepared as previously described. Immature DCs are transduced on day 4 at an MOT of 20 with lentiviral vectors as described (Rowe H M et al, Molecular Therapy, 13, 2, 2006) and fed every 4 days with fresh medium containing granulocyte-macrophage colony-stimulating factor (50 ng/ml; from Peprotech). On day 5 posttransduction, DCs are harvested, washed, and blocked for Fc receptors before surface staining for maturation markers with the following biotin-conjugated Abs: anti-CD11c, anti-CD86, and anti-I-Ab (MHC class II) (all from BD Pharmingen); anti-CD40 (from Serotec); and anti-CD80, anti-ICAM-1, and anti-Kb (MHC class I) (all from eBioscience). A hamster isotype control Ab (biotin conjugated) is purchased from BD Pharmingen. Abs are then labeled with streptavidin RPE Cy-5 2o reagent (DakoCytomation) before flow cytometry. Lipopolysaccharide (LPS) (50 ng/ml) (Sigma) is added to untransduced DCs and left overnight as a positive control for maturation. Zymosan A (10 μg/ml) treatment (for 30 min at 37° C.) is used as a control for ERK activation.
Mouse BM-derived Dendritic cells (DCs) are infected with the lentivectors encoding human NEMO-K277A, human NEMO-K277A-deltaV249-K255, mouse NEMO-K270A and IKK2-S177E-S181E either alone or in combination with Ii-OVA.

BM-derived DCs = experiment: IL-12p70 and TNF-α ELISA of dendritic cell culture supernatants; format: cell-based, mouse; conditions: culture of transduced DCs
Experimental: ELISA. Culture supernatants are harvested from DCs plated at 5×10^5 cells per well (in 1.5 ml). IL-12p70 and tumor necrosis factor alpha (TNF-α) are detected by sandwich enzyme-linked immunosorbent assay (ELISA), using kits from eBioscience according to the manufacturer's guidelines.
After transduction of BM-derived DCs with human NEMO-K277A-, human NEMO-K277A-deltaV249-K255-, mouse NEMO-K270A- and IKK2-S177E-S181E, maturation markers on the transduced or nontransduced cells are analyzed.

RAJI cells = experiment: AP20187-induced proliferation and cytokine production of CAR-T cells exposed to RAJI cells; format: cell-based, human; conditions: AP20187 100 nM; exposed to CD19 expressing RAJI cells
Experimental: The experiments described in the preceding paragraphs are repeated by using CAR constructs in which the hNEMO-K277A accessory module is replaced by accessory modules encoding FKBPx2-hNEMO, FKBPx2-hNEMO-K277A (SEQ ID NO: 1006), FKBPx2-hNEMO-L753(251) (SEQ ID NO: 1007), FKBPx2-hNEMO-L600(200) (SEQ ID NO: 1008), IKK2-delta-SCD-FKBPv36x2 (SEQ ID NO: 7782), IKK1-delta-SCD-FKBPv36x2 (SEQ ID NO: 7781) and FKBPx2-RIP-ID (SEQ ID NO: 1009). T cells expressing the CAR and these accessory modules are tested using in vitro assays in the absence and presence of the dimerizer AP20187 (100 nM). […] In an in vivo experiment, NSG mice (n=12 per group) are xenografted with 2 million RAJI-Luc cells by tail vein injection and 3 days later administered 5 million T cells expressing a CD19-CAR and coexpressing the FKBPx2-hNEMO, FKBPx2-hNEMO-K277A (SEQ ID NO: 1006), FKBPx2-hNEMO-L753(251) (SEQ ID NO: 1007), FKBPx2-hNEMO-L600(200) (SEQ ID NO: 1008) and FKBPx2-RIP-ID (SEQ ID NO: 1009) modules. Half the mice in each group (n =6) are administered 40 μg of AP20187 every day for 10 days by intraperitoneal injection as described previously (Chinnery et al, J Immunol 2009; 182:2738-2744).

| Molecule | ability of T cells to proliferate long term in culture (CD3+ve T cells) | activation of the MAPK pathway (nuclear AP1 binding activity) (NF-κB) | nuclear NF-κB binding activity in transduced DCs (NF-κB) | p65 (RelA) localisation in DCs (NF-κB) | secretion of IL-12p70 and TNF-α (BM-derived DCs) | proliferation and cytokine production of CAR-T cells on addition of AP20187 (RAJI cells) | other results |
| --- | --- | --- | --- | --- | --- | --- | --- |
| IKK2-S177E-S181E: constitutive active mutant of IKKβ/IKK2 | extends their ability to proliferate long term in culture without undergoing senescence | no affect on the activation of the MAPK pathway | Increased nuclear NF-κB binding activity | nuclear translocation of p65 (RelA) | upregulated | – | cytokine production, proliferation, in vivo expansion and anti-tumor activity of CAR-T cells (CD19): increased cytokine production, proliferation, in vivo expansion and anti-tumor activity |
| FKBPx2-RIP-ID: RIP-ID fused to FKBPx2 dimerizer domain, accessory module | – | – | – | – | – | induce the proliferation and cytokine production | – |
| K13-opt: vFLIP K13 encoded by human codon optimized nucleic acid sequence | extends their ability to proliferate long term in culture without undergoing senescence | – | – | – | – | – | – |
| IKK2-delta-SCD-FKBPv36x2: IKK2 fusion with FKBPv36x2 switch domain, accessory module | – | – | – | – | – | induce the proliferation and cytokine production | – |
| B1 | extends their ability to proliferate long term in culture without undergoing senescence | no affect on the activation of the MAPK pathway | Increased nuclear NF-κB binding activity | nuclear translocation of p65 (RelA) | upregulated | – | proliferation of infected T cells (CD3+ve T cells; lentiviral infection, blasticidin selection, compared to EGFP or mouse NEMO-wt): proliferate more vigorously |
| B2 | extends their ability to proliferate long term in culture without undergoing senescence | – | – | – | – | – | cytokine production, proliferation, in vivo expansion and anti-tumor activity of CAR-T cells (CD19; accessory module replacing hNEMO-K277A, compared to CAR-T cells lacking the accessory module): increased cytokine production, proliferation, in vivo expansion and anti-tumor activity |
